Key:
[1] = target: T1, Zinc finger and BTB domain-containing protein 11 (Homo sapiens) (UniProt O95625); conditions: OCI-Ly1
T1 sequence (whole entry): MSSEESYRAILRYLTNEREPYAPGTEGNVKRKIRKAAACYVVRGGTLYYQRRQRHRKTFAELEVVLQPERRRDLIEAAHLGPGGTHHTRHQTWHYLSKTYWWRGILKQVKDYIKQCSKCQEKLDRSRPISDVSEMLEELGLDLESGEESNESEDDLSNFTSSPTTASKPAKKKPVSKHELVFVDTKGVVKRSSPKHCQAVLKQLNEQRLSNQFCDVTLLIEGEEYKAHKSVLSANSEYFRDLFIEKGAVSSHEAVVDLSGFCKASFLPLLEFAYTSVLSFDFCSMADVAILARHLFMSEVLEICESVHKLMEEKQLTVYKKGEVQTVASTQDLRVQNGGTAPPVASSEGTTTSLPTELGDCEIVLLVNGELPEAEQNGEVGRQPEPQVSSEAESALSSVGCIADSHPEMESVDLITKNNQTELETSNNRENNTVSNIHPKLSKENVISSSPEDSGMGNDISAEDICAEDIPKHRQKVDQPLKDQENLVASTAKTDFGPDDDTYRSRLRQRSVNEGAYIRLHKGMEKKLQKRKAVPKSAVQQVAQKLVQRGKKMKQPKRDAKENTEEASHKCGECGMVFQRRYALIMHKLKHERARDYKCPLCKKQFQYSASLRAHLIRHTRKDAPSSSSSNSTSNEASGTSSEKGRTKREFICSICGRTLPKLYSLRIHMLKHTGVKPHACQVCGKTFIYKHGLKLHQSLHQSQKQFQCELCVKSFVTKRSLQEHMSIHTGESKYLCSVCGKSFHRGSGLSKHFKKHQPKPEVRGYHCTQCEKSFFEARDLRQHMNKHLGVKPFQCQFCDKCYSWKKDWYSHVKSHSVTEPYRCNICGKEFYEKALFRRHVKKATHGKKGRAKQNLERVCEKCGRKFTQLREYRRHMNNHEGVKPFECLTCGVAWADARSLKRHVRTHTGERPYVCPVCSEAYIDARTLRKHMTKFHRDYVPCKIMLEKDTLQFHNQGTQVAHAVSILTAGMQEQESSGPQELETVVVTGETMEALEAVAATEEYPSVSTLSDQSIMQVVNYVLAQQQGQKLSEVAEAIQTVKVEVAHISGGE

[2] = target: T2, Zinc finger protein 131 (Homo sapiens) (UniProt P52739); conditions: SUD4
T2 sequence (whole entry): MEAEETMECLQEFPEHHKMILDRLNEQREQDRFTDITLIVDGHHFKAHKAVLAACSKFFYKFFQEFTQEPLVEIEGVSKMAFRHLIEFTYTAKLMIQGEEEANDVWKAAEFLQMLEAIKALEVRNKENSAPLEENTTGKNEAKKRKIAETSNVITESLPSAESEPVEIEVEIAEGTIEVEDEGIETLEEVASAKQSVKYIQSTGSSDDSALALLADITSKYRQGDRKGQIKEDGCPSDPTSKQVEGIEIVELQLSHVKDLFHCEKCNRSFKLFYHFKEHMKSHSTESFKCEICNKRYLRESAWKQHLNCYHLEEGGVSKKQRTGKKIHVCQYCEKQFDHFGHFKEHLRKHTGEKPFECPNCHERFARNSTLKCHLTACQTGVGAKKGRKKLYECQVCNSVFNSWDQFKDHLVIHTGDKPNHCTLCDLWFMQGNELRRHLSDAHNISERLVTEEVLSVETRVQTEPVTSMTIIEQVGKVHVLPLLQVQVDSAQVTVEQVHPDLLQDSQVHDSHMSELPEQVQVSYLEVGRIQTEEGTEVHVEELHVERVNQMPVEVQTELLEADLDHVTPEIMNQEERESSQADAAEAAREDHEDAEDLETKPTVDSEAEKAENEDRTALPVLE

[3] = target: T3, Transcription regulator protein BACH2 (Homo sapiens) (UniProt Q9BYV9); conditions: OCI-Ly1
T3 sequence (whole entry): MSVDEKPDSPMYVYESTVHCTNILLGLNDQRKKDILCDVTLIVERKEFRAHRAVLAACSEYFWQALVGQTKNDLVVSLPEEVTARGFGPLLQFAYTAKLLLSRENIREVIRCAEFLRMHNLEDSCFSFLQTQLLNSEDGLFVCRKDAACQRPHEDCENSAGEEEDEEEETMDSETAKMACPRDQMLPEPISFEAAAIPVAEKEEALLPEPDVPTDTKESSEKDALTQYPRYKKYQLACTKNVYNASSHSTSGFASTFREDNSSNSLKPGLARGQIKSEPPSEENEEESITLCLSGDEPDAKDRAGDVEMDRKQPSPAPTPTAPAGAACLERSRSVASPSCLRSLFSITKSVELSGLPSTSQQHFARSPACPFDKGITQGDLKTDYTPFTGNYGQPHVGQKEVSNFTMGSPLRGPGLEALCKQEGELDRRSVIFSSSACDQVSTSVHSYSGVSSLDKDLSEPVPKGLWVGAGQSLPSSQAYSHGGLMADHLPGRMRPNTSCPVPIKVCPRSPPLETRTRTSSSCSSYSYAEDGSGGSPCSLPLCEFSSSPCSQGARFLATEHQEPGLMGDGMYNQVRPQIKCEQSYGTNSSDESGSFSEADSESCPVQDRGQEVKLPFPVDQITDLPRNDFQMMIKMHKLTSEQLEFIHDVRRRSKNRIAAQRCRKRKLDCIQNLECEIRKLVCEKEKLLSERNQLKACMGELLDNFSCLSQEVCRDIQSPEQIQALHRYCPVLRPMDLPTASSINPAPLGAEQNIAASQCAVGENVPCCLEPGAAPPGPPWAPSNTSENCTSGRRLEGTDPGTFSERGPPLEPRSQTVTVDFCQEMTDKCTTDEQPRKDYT

[4] = target: T4, Zinc finger and BTB domain-containing protein 43 (Homo sapiens) (UniProt O43298); conditions: SUD4
T4 sequence (whole entry): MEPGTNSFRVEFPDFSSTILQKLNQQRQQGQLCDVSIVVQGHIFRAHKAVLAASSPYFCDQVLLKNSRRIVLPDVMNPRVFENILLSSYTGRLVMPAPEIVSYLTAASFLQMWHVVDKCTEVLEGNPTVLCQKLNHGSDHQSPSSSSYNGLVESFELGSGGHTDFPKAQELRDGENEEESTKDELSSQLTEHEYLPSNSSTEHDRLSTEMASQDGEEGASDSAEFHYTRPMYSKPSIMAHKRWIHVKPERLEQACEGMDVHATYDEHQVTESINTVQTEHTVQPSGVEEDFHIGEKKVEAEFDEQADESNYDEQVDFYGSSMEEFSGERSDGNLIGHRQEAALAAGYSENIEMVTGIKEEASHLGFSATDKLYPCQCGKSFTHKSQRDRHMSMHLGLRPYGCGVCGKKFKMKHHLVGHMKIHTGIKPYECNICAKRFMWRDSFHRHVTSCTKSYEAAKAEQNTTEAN

Q: Which Normalized abundances for DMSO [1] does the source give for `C[C@@H]1CN(c2ncc(Cl)c(Nc3ccc4c(c3)n(CCC(C)(C)O)c(=O)n4C)n2)C[C@H](C)C1(F)F` here?
A: 366

Q: What about the Normalized abundances for compound [1] of the same molecule?
A: 364

Q: And the Normalized abundances for DMSO [2]?
A: 1720

Q: What about the Normalized abundances for compound [2] of the same molecule?
A: 1860

Q: What about the Normalized abundances for DMSO [3] of the same molecule?
A: 521

Q: And the Normalized abundances for compound [3]?
A: 520

Q: What about the Normalized abundances for DMSO [4] of the same molecule?
A: 643

Q: And the Normalized abundances for compound [4]?
A: 661
